What was measured:
[1] = target: urease (Canavalia ensiformis, UniProt P07374); settings: 30 ml methanal (24% by weight) added to urease-contaminated urea system containing the inhibitor
Experimental: This can simply be studied by addition of 30 ml of methanal to the urease-contaminated and Cu^2+-contaminated reference system.
This is simple studied by addition of 30 ml methanal to the reference system contaminated with urease, Ag^+- or Pb^2+-ions.

[2] = target: urease EC 3.5.1.5 (Canavalia ensiformis, UniProt P07374); settings: for colour shift of phenolphthalein into red (ammonia formation by urea hydrolysis): 1 g inhibitor added to 10 g urea in 50 ml water, then 1 ml urease (540 units per ml), system also does not begin to smell of ammonia; for catalytic effect of the urease enzyme on the hydrolysis of urea: ions present in the urinal system
Experimental: For this example, a colourless urea reference system is defined by the following mixture: in a conical flask 10 g of synthetic urea is diluted with water to 50 ml, three drops of the acid-base indicator phenolphthalein is added.

With `CC(=O)[O-].CC(=O)[O-].[Pb+2]` [lead acetate] the “formation of urea formaldehyde plastic in spite of urease contamination” value [1] was “it is possible to form the urea formaldehyde plastic”, the “colour shift of phenolphthalein into red (ammonia formation by urea hydrolysis)” value [2] was “the colour shift of phenolphthalein does not occur” and the “catalytic effect of the urease enzyme on the hydrolysis of urea” value [2] was “completely lost”.
In the case of copper sulphate, pentahydrate, the “formation of urea formaldehyde plastic in spite of urease contamination” value [1] is reported as “it is possible to form the urea formaldehyde plastic”, the “colour shift of phenolphthalein into red (ammonia formation by urea hydrolysis)” value [2] is reported as “the colour shift of phenolphthalein does not occur” and the “catalytic effect of the urease enzyme on the hydrolysis of urea” value [2] is reported as “completely lost”.
